Patent US20210145806A1, “Methods of Treating Brain Cancer and Related Diagnostic Methods” (Emory University, priority 2019, published 2021)

Assays:
[1] = test system: SHH activated MB cells (DAOY, UW228 and ONS-76); assay: Proliferation of SHH activated human MB cells (mean/composite of all lines); conditions: read-out: IC50, inhibition of proliferation
[2] = test system: SHH-activated MB cells (DAOY, UW228 and ONS-76); assay: Soft agar colony formation assay (CFA); conditions: p<0.01 compared to vehicle control (DMSO); unit not given

| Structure (SMILES) | IC50 [1] | concentration at which colony formation is inhibited [2] |
| --- | --- | --- |
| CC(NC(=O)C(C#N)=Cc1cccc(Br)n1)c1ccccc1 (centres unmarked) [WP1066, 3-(6-bromopyridin-2-yl)-2-cyano-N-(1-phenylethyl)acrylamide] | 1800 nM |  |
| O=c1c(O)c(-c2ccc(O)c(O)c2)oc2cc(O)ccc12 [fisetin, 2-(3,4-dihydroxyphenyl)-3,7-dihydroxy-4H-chromen-4-one] |  | ≥ 6 |
